# scFv variants of Ab-14 (heavy chain) against a SARS-CoV-2 spike peptide

Target peptide (SARS-CoV-2 spike, HR2 region): PDVDLGDISGINAS

Ab-14 is the parent antibody, in scFv form: VH, then a (GGGGS)3 linker, then VL. The light chain is unchanged in all variants.
VH: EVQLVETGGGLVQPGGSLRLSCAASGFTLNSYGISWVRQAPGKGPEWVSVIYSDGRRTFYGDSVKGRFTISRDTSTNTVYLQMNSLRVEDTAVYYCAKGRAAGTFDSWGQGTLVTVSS
VL: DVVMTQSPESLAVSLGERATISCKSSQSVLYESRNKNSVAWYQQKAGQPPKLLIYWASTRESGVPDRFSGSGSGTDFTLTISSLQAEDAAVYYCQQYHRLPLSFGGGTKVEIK

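The parent was found by panning a naive human phage display library on the peptide. Designed CDR sequences, proposed from the first random library and measured here. Their group label is 14H_GPLM_Gen (GPLM: also part of the Gaussian process libraries; Gen: genetic algorithm; a sequence that several methods proposed may carry one label only). In AlphaSeq, yeast of one mating type display the scFv and yeast of the other type display the target. Pairs that bind mate more often; barcode pairs of the diploids are counted by sequencing. Each replicate has its own calibration line, from reference interactions of the BCL2 family. There are six technical replicates.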

Changes read parent residue, position, new residue, counted from the first residue of the VH shown.
Numbers give log10(Kd / nM), so 0 is 1 nM and 3 is 1 µM. Smaller is tighter.
A mean of the replicates is given; it leaves out those without a signal.
Where no diploid with the target was found in that replicate, the entry reads "n.d.": below detection, most likely a poor binder, though not proof of it.
The authors averaged sequences with at least three values out of six and counted those with two or fewer as poor binders.
As a blank, each scFv also met three strains without target: over all heavy chain designs, 1% of these pairings were detected, typically at 2.08 and seldom below 0.84. The control count says in how many pairings with the empty strains this scFv gave a signal, with their mean in brackets.
A sequence measured in both rounds can read differently, since the two assays cover different ranges.

| # | changes | log10 Kd, replicates | log10 Kd (nM), mean | signal with controls |
|---|---|---|---|---|
| 1 | T28E/A101T/S107T | 0.39 / -0.08 / 0.15 / 0.09 / 0.12 / -0.05 | 0.10 | 0/18 |
| 2 | S53A/R100E/S107L | 1.10 / 0.55 / 0.93 / 0.67 / 0.07 / 0.02 | 0.56 | 1/18 (1.19) |
| 3 | T28D/R100S | 1.23 / 1.21 / 0.21 / 0.67 / 0.49 / 0.27 | 0.68 | 0/18 |
| 4 | T28S/S31E/G61A/R100S | -0.09 / -0.06 / -0.12 / -0.18 / -0.49 / 0.11 | -0.14 | 0/18 |
| 5 | T28S/S31Y/R100Q/A101T | 1.31 / 1.63 / 1.08 / 1.70 / 0.33 / 1.22 | 1.21 | 0/18 |
| 6 | T28D/G61H/A101V | 0.20 / 0.28 / 0.67 / 0.34 / 1.14 / n.d. | 0.53 | 0/18 |
| 7 | S63D/A101E/S107T | n.d. / 0.51 / n.d. / n.d. / n.d. / n.d. | 0.51 | 0/18 |
| 8 | T28S/G61K/A101E | 0.52 / 0.12 / -0.10 / 0.24 / 0.12 / 0.21 | 0.19 | 0/18 |
| 9 | T28S/S31Q/G61I | 0.71 / 0.50 / 0.34 / 0.95 / 0.00 / 0.90 | 0.57 | 0/18 |
| 10 | T28E/G61Q/R100E | 1.18 / 0.92 / 0.43 / 1.50 / 1.06 / 1.73 | 1.14 | 0/18 |
| 11 | T28S/N30E/S31N | 1.08 / -0.02 / 0.44 / 0.41 / 0.46 / 0.53 | 0.49 | 0/18 |
| 12 | T28G/S53A | 1.73 / 1.71 / 0.70 / 0.82 / 1.65 / 2.32 | 1.49 | 1/18 (2.22) |
| 13 | R56V/A101V | 0.40 / 0.78 / 0.63 / 1.33 / 0.59 / 2.10 | 0.97 | 0/18 |
| 14 | G26M/G61S/R100E | n.d. / n.d. / n.d. / n.d. / n.d. / n.d. | n.d. | 0/18 |
| 15 | S31E/R100H/S107K | n.d. / 0.48 / n.d. / -0.38 / 1.05 / 0.25 | 0.35 | 0/18 |
| 16 | T28S/S31E/G61A | 0.49 / 0.27 / 0.48 / 0.38 / 0.04 / 0.43 | 0.35 | 0/18 |
| 17 | S53A/R100Q/A101E | -0.31 / -0.45 / -0.57 / -0.33 / -0.52 / -0.48 | -0.44 | 0/18 |
| 18 | T28D/R100Q/A101I | 1.58 / 0.87 / n.d. / 1.32 / 0.59 / 0.44 | 0.96 | 0/18 |
| 19 | T28S/S31E/A101Q | -0.18 / -0.29 / -0.37 / -0.26 / -0.23 / -0.09 | -0.24 | 1/18 (1.59) |
| 20 | T28S/G61I/R100Q/S107T | 0.75 / 1.15 / 0.47 / 1.02 / 1.06 / 0.69 | 0.85 | 0/18 |
| 21 | T28S/S31E/F105L | 0.96 / 0.82 / 1.30 / 0.63 / 0.64 / 1.13 | 0.91 | 0/18 |
| 22 | T28S/S31N/G61V/R100Q | n.d. / 0.97 / 1.88 / 0.50 / 0.31 / 1.22 | 0.98 | 0/18 |
| 23 | F27E/T28S/G61A/A101T | n.d. / 2.30 / 0.97 / 1.35 / 0.76 / 1.10 | 1.30 | 0/18 |
| 24 | T28S/G61S/R100E/S107D | 0.38 / 0.68 / 0.28 / 0.51 / 0.14 / 0.86 | 0.48 | 0/18 |
| 25 | T28Q/A101V | -0.37 / n.d. / n.d. / n.d. / -1.40 / n.d. | -0.89 | 0/18 |
| 26 | G61S/R100E/S107F | n.d. / 1.14 / 0.90 / 0.97 / 1.56 / 1.16 | 1.15 | 0/18 |
| 27 | T28E/G61A/R100Q/A101V | 0.36 / -0.17 / 0.09 / -0.60 / -0.39 / -0.07 | -0.13 | 0/18 |
| 28 | T28E/S31E/G61A/A101Q | 0.60 / 0.40 / 0.15 / -0.01 / -0.20 / 0.43 | 0.23 | 0/18 |
| 29 | T28S/S31N/G61A/R100Q | 0.04 / -0.20 / 0.24 / -0.39 / 0.25 / 0.46 | 0.07 | 0/18 |
| 30 | T28W/G61A/A101T | 0.92 / 0.41 / 0.89 / n.d. / 1.45 / 0.56 | 0.85 | 0/18 |
| 31 | T28D/G61A/A101H | 0.77 / 0.44 / 0.35 / 0.55 / 0.30 / 0.89 | 0.55 | 1/18 (4.23) |
| 32 | S53A/R100K/S107R | 0.61 / 0.93 / 0.60 / 0.05 / 1.26 / 0.58 | 0.67 | 1/18 (1.16) |
| 33 | G61A/A101Q/S107T | 0.43 / 0.75 / 0.06 / 0.40 / 0.50 / -0.28 | 0.31 | 0/18 |
| 34 | T28S/S31N/G61A/A101T | -0.12 / 0.15 / 0.09 / -0.05 / 0.10 / 0.12 | 0.05 | 0/18 |
| 35 | T28S/S31E/A101T/S107R | 2.14 / 3.01 / 1.34 / 1.38 / 2.42 / 2.01 | 2.05 | 0/18 |
| 36 | T28Q/S31D/A101T | 0.96 / 0.08 / 0.16 / 0.39 / 0.84 / 0.97 | 0.57 | 0/18 |
| 37 | T28S/S63R/R100Q | n.d. / n.d. / n.d. / n.d. / n.d. / n.d. | n.d. | 0/18 |
| 38 | T28D/R100K/A101M | 1.02 / 0.17 / 0.94 / 0.41 / 0.46 / 0.44 | 0.57 | 0/18 |
| 39 | T28S/S31D/A101Y/S107T | 0.55 / 0.38 / -0.23 / -0.78 / 0.26 / 0.40 | 0.09 | 0/18 |
| 40 | T28S/S31D/A101T/S107M | -0.14 / 0.06 / -0.26 / -0.42 / -0.28 / 0.07 | -0.16 | 0/18 |
| 41 | T28V/F59A/A101T | -0.36 / 0.17 / n.d. / -0.19 / 1.07 / 0.60 | 0.26 | 0/18 |
| 42 | T28S/R100Q/S107K | n.d. / n.d. / n.d. / n.d. / n.d. / n.d. | n.d. | 0/18 |
| 43 | T28S/G61A/R100S/S107N | n.d. / n.d. / n.d. / n.d. / n.d. / n.d. | n.d. | 0/18 |
| 44 | A101V/S107L | 1.04 / 1.04 / 1.54 / 1.26 / n.d. / n.d. | 1.22 | 0/18 |
| 45 | T28S/G61M/R100E | 1.28 / 1.67 / 1.00 / 1.76 / 0.81 / 1.28 | 1.30 | 0/18 |
| 46 | T28D/S53A/R100E | 0.77 / 0.23 / -0.18 / -0.35 / -0.52 / -0.22 | -0.04 | 0/18 |
| 47 | T28H/S31E/A101H | 1.73 / 1.11 / 1.90 / 1.02 / 2.46 / 1.73 | 1.66 | 0/18 |
| 48 | T28S/S63D/A101T | -0.22 / -0.28 / -0.27 / 0.15 / -0.08 / -0.62 | -0.22 | 0/18 |
| 49 | T28Q/G61K/A101T | 0.47 / 0.98 / 0.34 / 0.42 / 0.14 / 1.98 | 0.72 | 0/18 |
| 50 | T28S/R100Q/S107W | n.d. / n.d. / n.d. / n.d. / n.d. / n.d. | n.d. | 0/18 |

The last 5 entries again:

| changes | log10 Kd, replicates | log10 Kd (nM), mean | signal with controls |
|---|---|---|---|
| T28D/S53A/R100E | 0.77 / 0.23 / -0.18 / -0.35 / -0.52 / -0.22 | -0.04 | 0/18 |
| T28H/S31E/A101H | 1.73 / 1.11 / 1.90 / 1.02 / 2.46 / 1.73 | 1.66 | 0/18 |
| T28S/S63D/A101T | -0.22 / -0.28 / -0.27 / 0.15 / -0.08 / -0.62 | -0.22 | 0/18 |
| T28Q/G61K/A101T | 0.47 / 0.98 / 0.34 / 0.42 / 0.14 / 1.98 | 0.72 | 0/18 |
| T28S/R100Q/S107W | n.d. / n.d. / n.d. / n.d. / n.d. / n.d. | n.d. | 0/18 |

Source: Li et al. 2023 (doi:10.1038/s41467-023-39022-2), MIT Lincoln Laboratory and A-Alpha Bio; data file from the FLAb repository.